The entries are a selection whose mix differs from that of the whole data set. Some tests of the compounds listed are not included; inactive here does not mean inactive elsewhere. The source made the active and inactive calls. Cut-off read from the data, not from the text of the source: active = inhibition above about 40%; inconclusive = no clear call, values can overlap the other calls; inactive = below that.
These molecules were tested on 7,8-diaminopelargonic acid synthase BioA (Mycobacterium tuberculosis) (assay: M. tuberculosis BioA enzyme inhibitors, primary screen, biochemical, plate reader, single point, HTS (AID 602481)). Conditions: purified M. tuberculosis BioA enzyme, at 9.99 µM, active compounds read high.

| Structure (SMILES) | inhibition |
| --- | --- |
| CN(C)C1(CNC(=O)c2ccc(Br)cc2)CCCCC1 | inactive: 7.42% |
| COc1cc(C(=O)NCC2(N(C)C)CCCCC2)c([N+](=O)[O-])cc1OC | inactive: -2.46% |
| COc1ccc(Cl)cc1C(=O)NCC1(N(C)C)CCCCC1 | inactive: -0.0785% |
| O=C(NCC1(N2CCCCC2)CCCCC1)c1cccc(Cl)c1 | inactive: 3.97% |
| COc1ccc(Br)c(C(=O)NCC2(N3CCCCC3)CCCCC2)c1 | inactive: -1.97% |
| C=C(C)C#CC(O)(C(=O)OC1CCN(C)CC1)c1ccccc1 (centres undefined) | inactive: -0.751% |
| CN(C)c1cccc(C(=O)NCC2(N(C)C)CCCCC2)c1 | inactive: 0.0665% |
| O=C(OCCN1CCCC1)C(O)(c1ccccc1)c1ccccc1 | inactive: -0.133% |
| CC(C)Oc1ccc(C(=O)NCC2(N(C)C)CCCCC2)cc1 | inactive: -2.14% |
| CN1[C@@H]2CC[C@H]1CC(OC(=O)C(O)(c1ccccc1)c1ccccc1)C2 (some centres undefined) | inactive: -1.1% |
| CC(C)N1C(=O)CC2(CCN(CCOC(=O)C(O)(c3ccccc3)c3ccccc3)CC2)C1=O | inactive: 0.508% |
| COc1cc(SC)ccc1C(=O)NCC1(N(C)C)CCCCC1 | inactive: 0.87% |
| CCN(CC)CC(C)C(C)OC(=O)C(O)(c1ccccc1)c1ccccc1 (centres undefined) | inactive: -1.64% |
| Cc1ccc(C(=O)NCC2(N3CCCCC3)CCCCC2)cc1 | inactive: -1.05% |
| CN(C)c1ccc(C(=O)NCC2(N(C)C)CCCCC2)cc1 | inactive: 1.19% |
| O=C(NCC1(N2CCCCC2)CCCCC1)c1cc(F)c(F)cc1Cl | inactive: 1.25% |
| O=C(NCC1(N2CCCCC2)CCCCC1)c1cccc(Br)c1 | inactive: -0.573% |
| Cc1cc(C(=O)NCC2(N3CCCCC3)CCCCC2)ccc1[N+](=O)[O-] | inactive: -0.811% |
| COc1ccc(C(=O)NCC2(N(C)C)CCCCC2)cc1 | inactive: 2.04% |

— PubChem BioAssay AID602481 (Broad Institute, 2012)
